Measured values as given in the Kinase Knowledgebase extract (Sharma et al. 2016).

Legend:
[1] = system: EGFR (human), P00533 [delE746-A750]; settings: hcc827
[2] = system: EGFR (Human), P00533 [T790M/L858R]; settings: h1975

Compound	GI50 [1] [nM]	GI50 [2] [nM]
C=CC(=O)Nc1cccc(Nc2nc(Nc3ccc(OC)c(OC)c3OC)ncc2Cl)c1	100 to 500	100 to 500
C=CC(=O)Nc1cccc(Oc2nc(Nc3ccc(OC)cc3OC)ncc2Br)c1	100 to 500	–
C=CC(=O)Nc1cccc(Oc2nc(Nc3ccc(OC)cc3OC)ncc2Cl)c1	100 to 500	–
